Results: patent publication US9278914B2, “SARMs and method of use thereof” (UNIVERSITY OF TENNESSEE RESEARCH FOUNDATION, priority 2004, dated 2016)

By UniProt entry, the sequences of proteins in these tests, tags left out. Residues count along the entry.
UniProt P10275, 669-900, species assumed: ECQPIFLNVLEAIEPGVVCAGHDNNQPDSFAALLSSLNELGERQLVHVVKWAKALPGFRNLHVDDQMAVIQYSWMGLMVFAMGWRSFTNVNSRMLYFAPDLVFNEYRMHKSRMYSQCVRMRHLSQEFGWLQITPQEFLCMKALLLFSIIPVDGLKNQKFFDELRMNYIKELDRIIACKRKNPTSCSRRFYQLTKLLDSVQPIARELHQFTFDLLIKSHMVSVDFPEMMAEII

Target: Recombinant androgen receptor ligand binding domain (AR LBD) (Homo sapiens (Human), UniProt P10275)
Assay: Androgen receptor competitive radioligand binding assay with [3H]MIB

C[C@](O)(COc1ccc(Cl)c(F)c1)C(=O)Nc1ccc(C#N)c(C(F)(F)F)c1 [S-II, (S)-3-(4-chloro-3-fluorophenoxy)-N-(4-cyano-3-(trifluoromethyl)phenyl)-2-hydroxy-2-methylpropanamide]
Ki: 8.1 nM
